Protein sequences, listed by entry. Tags and fused reporters are not part of them. Residues count along the entry.
UniProt P01116, 1-188 isoform P01116-2 G12D: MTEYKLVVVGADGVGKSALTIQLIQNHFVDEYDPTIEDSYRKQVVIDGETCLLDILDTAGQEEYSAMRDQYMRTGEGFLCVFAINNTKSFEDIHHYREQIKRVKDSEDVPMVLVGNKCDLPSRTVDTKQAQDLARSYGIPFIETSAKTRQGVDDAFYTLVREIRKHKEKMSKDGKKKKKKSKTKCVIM

In US20250018047A1, “METHODS AND COMPOSITIONS FOR TARGETED PROTEIN DEGRADATION” (Ranok Therapeutics (Hangzhou) Co. Ltd., priority 2021, published 2025):

Tests used:
KRAS(G12D)/SOS1 = target: T1, KRAS(G12D)/SOS1 (Homo sapiens, UniProt P01116, G12D); assay: KRAS(G12D)/SOS1 homogeneous time-resolved fluorescence (HTRF) assay; type: binding
T1 construct: purchased Cisbio 63ADK000CB16PEG
Description: The test compound was mixed and incubated with reaction components, incubated in a sealed plate at 4° C. for 3 hr and fluorescence was measured using a PerkinElmer Envision plate reader.

KRAS(G12D) = target: T2, KRAS(G12D) (Homo sapiens, UniProt P01116, G12D); assay: SW1990 WB assay (degradation DC50, Dmax); type: cell-based; conditions: read-out: WB data SW1990 DC50; Western blot, SW1990 cells
T2 construct: endogenous in cells; host or cells: SW1990

C#Cc1cccc2cc(O)cc(-c3ncc4c(N5CC6CCC(C5)N6)nc(OCC5(CN6CCN(CC7CCN(CC(=O)N[C@@H](C(=O)N8C[C@@H](O)C[C@@H]8C(=O)NCc8ccc(-c9scnc9C)cc8)C(C)(C)C)CC7)CC6)CC5)nc4c3F)c12 [Compound 82] was tested, and the IC50 (KRAS(G12D)/SOS1) was < 100 nM and the DC50 (KRAS(G12D)) was < 100 nM.
